Test results from patent US11535629B2, “Dioxoloisoquinolinone derivatives and use thereof” (HANMI PHARMACEUTICAL CO., LTD., priority 2020, dated 2022).

Chains of the proteins cited; added tags and fusions are not shown.
UniProt Q15910, whole entry: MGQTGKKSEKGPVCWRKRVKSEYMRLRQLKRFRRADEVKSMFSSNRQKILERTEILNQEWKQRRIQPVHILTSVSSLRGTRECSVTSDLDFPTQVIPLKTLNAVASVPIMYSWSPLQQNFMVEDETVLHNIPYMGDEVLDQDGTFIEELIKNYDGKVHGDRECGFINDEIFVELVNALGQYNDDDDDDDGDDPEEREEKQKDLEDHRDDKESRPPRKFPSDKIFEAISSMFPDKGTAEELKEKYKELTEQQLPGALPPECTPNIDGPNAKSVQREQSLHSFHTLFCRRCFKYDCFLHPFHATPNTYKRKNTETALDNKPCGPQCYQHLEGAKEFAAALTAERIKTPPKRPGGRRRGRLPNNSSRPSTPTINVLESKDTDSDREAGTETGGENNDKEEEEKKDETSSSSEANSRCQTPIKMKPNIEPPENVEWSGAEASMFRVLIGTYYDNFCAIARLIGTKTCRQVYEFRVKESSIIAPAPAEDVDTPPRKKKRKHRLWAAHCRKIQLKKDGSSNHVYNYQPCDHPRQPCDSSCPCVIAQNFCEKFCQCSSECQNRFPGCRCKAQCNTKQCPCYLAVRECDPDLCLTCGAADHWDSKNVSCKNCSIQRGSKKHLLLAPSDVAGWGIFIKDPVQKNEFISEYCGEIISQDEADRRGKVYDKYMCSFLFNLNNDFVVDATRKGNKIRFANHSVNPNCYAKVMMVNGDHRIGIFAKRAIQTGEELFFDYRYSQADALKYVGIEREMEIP

The compounds below were run against EZH2 (Homo sapiens (Human), UniProt Q15910) (assay: EZH2 methyltransferase inhibitory activity (radiometric scintillation proximity assay)). Details: not given.
For `Cc1cc(C)c(CN2CCc3c(C)c4c(c(C)c3C2=O)OC(C)(C23CCC(N(C)C)(CC2)CC3)O4)c(=O)[nH]1` (single isomer, unassigned) [Compound 23, 6-((4,6-dimethyl-2-oxo-1,2-dihydropyridin-3-yl)methyl)-2-(4-(dimethylamino)bicyclo[2.2.2]octan-1-yl)-2,4,9-trimethyl-7,8-dihydro-[1,3]dioxolo[4,5-g]isoquinolin-5(6H)-one], the IC50 was 0.59 nM.
Compound `Cc1cc(C)c(CN2CCc3c(Br)c4c(c(C)c3C2=O)OC(C)(C23CCC(N(C)C)(CC2)CC3)O4)c(=O)[nH]1` (single isomer, unassigned) [Compound 11, 9-bromo-6-((4,6-dimethyl-2-oxo-1,2-dihydropyridin-3-yl)methyl)-2-(4-(dimethylamino)bicyclo[2.2.2]octan-1-yl)-2,4-dimethyl-7,8-dihydro-[1,3]dioxolo[4,5-g]isoquinolin-5(6H)-one] has an IC50 of 0.35 nM.
In the case of `Cc1cc(C)c(CN2CCc3c(Cl)c4c(c(C)c3C2=O)OC(C)(C23CCC(N(C)C)(CC2)CC3)O4)c(=O)[nH]1` (single isomer, unassigned) [Compound 2, 9-chloro-6-((4,6-dimethyl-2-oxo-1,2-dihydropyridin-3-yl)methyl)-2-(4-(dimethylamino)bicyclo[2.2.2]octan-1-yl)-2,4-dimethyl-7,8-dihydro-[1,3]dioxolo[4,5-g]isoquinolin-5(6H)-one], the IC50 is reported as 0.36 nM.
`Cc1cc(C)c(CN2CCc3c(c(C)c4c(c3-c3ccco3)O[C@](C)([C@H]3CC[C@H](N(C)C)CC3)O4)C2=O)c(=O)[nH]1` [Compound 30, (R)-6-((4,6-dimethyl-2-oxo-1,2-dihydropyridin-3-yl)methyl)-2-(trans-4-(dimethylamino)cyclohexyl)-9-(furan-2-yl)-2,4-dimethyl-7,8-dihydro-[1,3]dioxolo[4,5-g]isoquinolin-5(6H)-one] showed an IC50 of 1.2 to 1.7 nM.
Work on `CSc1cc(C)[nH]c(=O)c1CN1CCc2c(Cl)c3c(c(C)c2C1=O)OC(C)(C12CCC(N(C)C)(CC1)CC2)O3` (single isomer, unassigned) [Compound 8, 9-chloro-2-(4-(dimethylamino)bicyclo[2.2.2]octan-1-yl)-2,4-dimethyl-6-((6-methyl-4-(methylthio)-2-oxo-1,2-dihydropyridin-3-yl)methyl)-7,8-dihydro[1,3]dioxolo[4,5-g]isoquinolin-5(6H)-one] yielded an IC50 of 15 nM.
Work on `COc1cc(C)[nH]c(=O)c1CN1CCc2c(Cl)c3c(c(C)c2C1=O)OC(C)(C12CCC(N(C)C)(CC1)CC2)O3` (single isomer, unassigned) [Compound 5, 9-chloro-2-(4-(dimethylamino)bicyclo[2.2.2]octan-1-yl)-6-((4-methoxy-6-methyl-2-oxo-1,2-dihydropyridin-3-yl)methyl)-2,4-dimethyl-7,8-dihydro[1,3]dioxolo[4,5-g]isoquinolin-5(6H)-one] yielded an IC50 of 1.2 nM.

Same assay, conditions: read-out: Enzyme inhibitory activity (IC50, nM) EZH2; 2.3 nmol/L EZH2, 90 minutes at room temperature
`Cc1cc(C)c(CN2CCc3c(c(C)c4c(c3-c3ccc(C)o3)O[C@](C)([C@H]3CC[C@H](N(C)C)CC3)O4)C2=O)c(=O)[nH]1` [Compound 40, (R)-6-((4,6-dimethyl-2-oxo-1,2-dihydropyridin-3-yl)methyl)-2-(trans-4-(dimethylamino)cyclohexyl)-2,4-dimethyl-9-(5-methylfuran-2-yl)-7,8-dihydro-[1,3]dioxolo[4,5-g]isoquinolin-5(6H)-one] gave an IC50 of 2.2 nM.
`Cc1cc(C)c(CN2CCc3c(c(C)c4c(c3-c3cccn3C)O[C@](C)([C@H]3CC[C@H](N(C)C)CC3)O4)C2=O)c(=O)[nH]1` [Compound 48, (R)-6-((4,6-dimethyl-2-oxo-1,2-dihydropyridin-3-yl)methyl)-2-(trans-4-(dimethylamino)cyclohexyl)-2,4-dimethyl-9-(1-methyl-1H-pyrrol-2-yl)-7,8-dihydro-[1,3]dioxolo[4,5-g]isoquinolin-5(6H)-one] was tested, and the IC50 was 3.3 nM.
`Cc1cc(C)c(CN2CCc3c(c(C)c4c(c3-c3cccs3)O[C@](C)([C@H]3CC[C@H](N(C)C)CC3)O4)C2=O)c(=O)[nH]1` [Compound 32, (R)-6-((4,6-dimethyl-2-oxo-1,2-dihydropyridin-3-yl)methyl)-2-(trans-4-(dimethylamino)cyclohexyl)-2,4-dimethyl-9-(thiophen-2-yl)-7,8-dihydro-[1,3]dioxolo[4,5-g]isoquinolin-5(6H)-one] gave an IC50 of 2.5 nM.
`Cc1cc(C)c(CN2CCc3c(c(C)c4c(c3-c3ccncc3)O[C@](C)([C@H]3CC[C@H](N(C)C)CC3)O4)C2=O)c(=O)[nH]1` [Compound 34, (R)-6-((4,6-dimethyl-2-oxo-1,2-dihydropyridin-3-yl)methyl)-2-(trans-4-(dimethylamino)cyclohexyl)-2,4-dimethyl-9-(pyridin-4-yl)-7,8-dihydro-[1,3]dioxolo[4,5-g]isoquinolin-5(6H)-one] was tested, and the IC50 was 3.4 nM.
`Cc1cc(C)c(CN2CCc3c(c(C)c4c(c3-c3cccnc3)O[C@](C)([C@H]3CC[C@H](N(C)C)CC3)O4)C2=O)c(=O)[nH]1` [Compound 44, (R)-6-((4,6-dimethyl-2-oxo-1,2-dihydropyridin-3-yl)methyl)-2-(trans-4-(dimethylamino)cyclohexyl)-2,4-dimethyl-9-(pyridin-3-yl)-7,8-dihydro-[1,3]dioxolo[4,5-g]isoquinolin-5(6H)-one] showed an IC50 of 3.3 nM.
`Cc1cc(C)c(CN2CCc3c(c(C)c4c(c3-c3ccsc3)O[C@](C)([C@H]3CC[C@H](N(C)C)CC3)O4)C2=O)c(=O)[nH]1` [Compound 50, (R)-6-((4,6-dimethyl-2-oxo-1,2-dihydropyridin-3-yl)methyl)-2-(trans-4-(dimethylamino)cyclohexyl)-2,4-dimethyl-9-(thiophen-3-yl)-7,8-dihydro-[1,3]dioxolo[4,5-g]isoquinolin-5(6H)-one] gave an IC50 of 3.8 nM.
`Cc1cc(C)c(CN2CCc3c(c(C)c4c(c3-c3cncs3)O[C@](C)([C@H]3CC[C@H](N(C)C)CC3)O4)C2=O)c(=O)[nH]1` [Compound 52, (R)-6-((4,6-dimethyl-2-oxo-1,2-dihydropyridin-3-yl)methyl)-2-(trans-4-(dimethylamino)cyclohexyl)-2,4-dimethyl-9-(thiazol-5-yl)-7,8-dihydro-[1,3]dioxolo[4,5-g]isoquinolin-5(6H)-one] showed an IC50 of 2.7 nM.
